Assay results reported in patent US20200223889A1, “Bicyclic Compounds Capable of Binding to Melanocortin 4 Receptor” (Novo Nordisk A/S, priority 2017, published 2020).

The chains behind the UniProt entries cited, without tags or fusion partners. Where a name states a change or a piece, a line headed by the entry shows the natural chain unless it says otherwise.
UniProt Q01726: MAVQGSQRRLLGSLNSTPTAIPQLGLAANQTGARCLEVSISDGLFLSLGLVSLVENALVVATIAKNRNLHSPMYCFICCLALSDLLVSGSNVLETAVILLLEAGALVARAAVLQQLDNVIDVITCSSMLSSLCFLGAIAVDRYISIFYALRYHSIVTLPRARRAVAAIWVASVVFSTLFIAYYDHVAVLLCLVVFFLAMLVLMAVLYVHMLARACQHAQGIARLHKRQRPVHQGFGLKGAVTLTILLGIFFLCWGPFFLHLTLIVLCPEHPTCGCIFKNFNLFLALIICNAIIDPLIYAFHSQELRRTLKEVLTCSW

Target: T1, human MC1R (Homo sapiens, UniProt Q01726)
T1 construct: expressed in transfected cells
Assay: Functional cAMP assay (CisBio HTRF) in BHK cells expressing human MC1R
Format: cell-based
Experimental: In order to assess the potency of the compounds on human MC1R and human MC4R cAMP signalling was measured.
cAMP induction was measured by c-AMPdynamic2 assay, HTRF 62AM4PEC system from CisBio for the human MC1R and human MC4R according to the protocol provided by the vendor. BHK cells expressing the human MC1 or MC4 receptor were generated by stable transfection with expression vectors encoding the cDNA of either MC1R or MC4R.
In details; 25 μl compound—or standard solution were added in the respective wells. Compound was reconstituted in buffer (DMEM w/o phenol red, 10 mM
Hepes, lx Glutamine, 0.1% OV-albumin1, 1 mM IBMX) and serially diluted starting at 2 μM, 10-fold seven times. Dilutions were carried out in the same aforementioned buffer to the desired working concentration ranges (2× higher than the final concentration). 25 μl cell solution was then added and allowed to incubate for 30 min while lightly shaking, at 25° C. […]
Plates were centrifuged at 1500 rpm for 30 sec and incubated for 1 h, lightly shaking, at 25° C. in a hotel stacker. The plates were read on Mithras LB 940 provided by Berthold Technologies The data were analysed by non-linear regression analysis of binding curves, using the Windows™ program GraphPad™ Prism (GraphPad Software, USA). […]

With `C[C@@H]1NC(=O)[C@@H]2CSSC[C@H](NC(=O)[C@H](Cc3c[nH]c4ccccc34)NC(=O)[C@H](CCCNC(=N)N[N+](=O)[O-])NC(=O)[C@@H](Cc3ccccc3)NC(=O)[C@H](Cc3c[nH]cn3)NC1=O)C(=O)N[C@@H](C)C(=O)N[C@@H](Cc1c[nH]cn1)C(=O)N[C@H](Cc1ccccc1)C(=O)N[C@@H](CCCNC(=N)N[N+](=O)[O-])C(=O)N[C@@H](Cc1c[nH]c3ccccc13)C(=O)N2` [Chem. 21, c[c[Cys-Ala-His-D-Phe-Arg(NO2)-Trp- Cys]-Ala-His-D-Phe-Arg(NO2)-Trp]] the EC50 was greater than 4 nM.
